Measured values as given in ChEMBL document CHEMBL5032516, “Synthesis and structural characterization of a monocarboxylic inhibitor for GRB2 SH2 domain” (Bioorg Med Chem Lett, 2021).

Amino acid sequences for entries named in this document (tags omitted).
UniProt P62993, whole entry, looked up: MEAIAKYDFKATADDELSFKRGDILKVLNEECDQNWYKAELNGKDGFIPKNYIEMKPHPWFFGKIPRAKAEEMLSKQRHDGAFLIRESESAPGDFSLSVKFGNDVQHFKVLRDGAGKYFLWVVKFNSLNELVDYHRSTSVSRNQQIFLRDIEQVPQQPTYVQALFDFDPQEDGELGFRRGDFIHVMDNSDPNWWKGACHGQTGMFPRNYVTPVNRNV

Target: Growth factor receptor-bound protein 2 (Homo sapiens, UniProt P62993)

ΔTm	Structure (SMILES)
69 °C	NC(=O)C[C@@H]1NC(=O)C2(CCCCC2)NC(=O)C[C@@H](c2ccc(CC(=O)O)cc2)/C=C/C[C@@H](Cc2cccc3ccccc23)CNC1=O
77 °C	NC(=O)C[C@@H]1NC(=O)C2(CCCCC2)NC(=O)C[C@@H](c2ccc(CP(=O)(O)O)cc2)/C=C/C[C@@H](Cc2cccc3ccccc23)CNC1=O
